Experimental findings from BindingDB's records for 25268943 are described below.

Chains of the proteins cited; added tags and fusions are not shown. Lines headed by an entry give the natural chain unless they say otherwise; changes in a name come on top.
UniProt P41145: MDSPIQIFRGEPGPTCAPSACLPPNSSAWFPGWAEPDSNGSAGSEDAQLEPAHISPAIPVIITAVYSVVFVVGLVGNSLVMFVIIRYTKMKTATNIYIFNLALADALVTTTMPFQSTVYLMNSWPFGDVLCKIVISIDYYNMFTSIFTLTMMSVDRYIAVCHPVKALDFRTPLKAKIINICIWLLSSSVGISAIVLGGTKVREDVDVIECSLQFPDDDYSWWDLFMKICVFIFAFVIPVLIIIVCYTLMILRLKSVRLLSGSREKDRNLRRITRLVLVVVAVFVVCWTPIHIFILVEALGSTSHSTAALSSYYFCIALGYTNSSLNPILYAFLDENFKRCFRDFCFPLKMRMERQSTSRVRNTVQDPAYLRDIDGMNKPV
UniProt P41143, whole entry, looked up: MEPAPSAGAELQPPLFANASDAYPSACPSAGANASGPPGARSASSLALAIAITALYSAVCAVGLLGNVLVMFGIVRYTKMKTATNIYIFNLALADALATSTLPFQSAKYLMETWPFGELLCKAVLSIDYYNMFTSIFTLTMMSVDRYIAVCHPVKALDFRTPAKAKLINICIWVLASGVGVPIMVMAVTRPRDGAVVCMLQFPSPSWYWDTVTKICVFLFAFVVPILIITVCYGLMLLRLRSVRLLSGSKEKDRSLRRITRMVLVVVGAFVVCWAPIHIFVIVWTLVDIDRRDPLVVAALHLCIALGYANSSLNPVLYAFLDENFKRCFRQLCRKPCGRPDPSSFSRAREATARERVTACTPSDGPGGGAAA
UniProt P35372, whole entry, looked up: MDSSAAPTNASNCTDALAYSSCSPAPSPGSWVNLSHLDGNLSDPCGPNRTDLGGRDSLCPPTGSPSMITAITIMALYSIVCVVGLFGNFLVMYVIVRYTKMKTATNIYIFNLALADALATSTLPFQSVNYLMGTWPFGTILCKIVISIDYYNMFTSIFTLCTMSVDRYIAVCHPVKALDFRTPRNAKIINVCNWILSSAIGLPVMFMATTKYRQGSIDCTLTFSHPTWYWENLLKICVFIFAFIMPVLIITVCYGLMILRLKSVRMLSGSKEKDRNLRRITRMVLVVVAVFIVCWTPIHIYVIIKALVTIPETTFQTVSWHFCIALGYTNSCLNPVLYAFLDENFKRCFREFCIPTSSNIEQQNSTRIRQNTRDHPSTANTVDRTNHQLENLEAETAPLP

As a reminder, the Ki is the equilibrium dissociation constant of an inhibitor or competing ligand from its target.

Experiment [1] deals with Kappa-type opioid receptor (Homo sapiens, UniProt P41145). Nature of the experiment: Displacement of [3H]U-69593 from human KOR expressed in HEK293 cells after 60 mins by scintillation counting analysis.
Experiment [2] concerns the target Delta-type opioid receptor (Homo sapiens, UniProt P41143).
A further experiment concerns the target Mu-type opioid receptor (Homo sapiens, UniProt P35372). Put plainly: Displacement of [3H]DAMGO from human MOR expressed in HEK293 cells after 60 mins by scintillation counting analysis. For orientation: In a radioligand displacement assay an active substance lowers the binding of a labelled ligand.

SMILES strings stand for the structures.

In the case of `N=C(N)NCC(=O)NCC1(Cc2ccccc2)CCN(Cc2ccccc2)CC1`, the inhibition constant (Ki) in experiment [1] was 4.25 µM; in experiment [2], above 5 µM; at Mu-type opioid receptor, above 5 µM.

`N=C(N)NCC(=O)NCC1(Cc2cccc3ccccc23)CCN(Cc2ccccc2)CC1`: the inhibition constant Ki in experiment [1] is 1.47 µM; on Mu-type opioid receptor it was above 5 µM.
